pIC50: −log10 of the molar value.
How the values were obtained:
[1] = target: Histone deacetylase (UniProt O15379+P56524+Q13547+Q8WUI4+Q92769+Q969S8+Q96DB2+Q9BY41+Q9UBN7+Q9UKV0+Q9UQL6)
[2] = target: Histone deacetylase 8 (Homo sapiens, UniProt Q9BY41); experiment: ASSAY_NAME: ChEMBL_2346022 DESCRIPTION: Inhibition of human recombinant HDAC8

The chains behind the UniProt entries cited, without tags or fusion partners. Where a name states a change or a piece, a line headed by the entry shows the natural chain unless it says otherwise.
UniProt Q9BY41, whole entry, looked up: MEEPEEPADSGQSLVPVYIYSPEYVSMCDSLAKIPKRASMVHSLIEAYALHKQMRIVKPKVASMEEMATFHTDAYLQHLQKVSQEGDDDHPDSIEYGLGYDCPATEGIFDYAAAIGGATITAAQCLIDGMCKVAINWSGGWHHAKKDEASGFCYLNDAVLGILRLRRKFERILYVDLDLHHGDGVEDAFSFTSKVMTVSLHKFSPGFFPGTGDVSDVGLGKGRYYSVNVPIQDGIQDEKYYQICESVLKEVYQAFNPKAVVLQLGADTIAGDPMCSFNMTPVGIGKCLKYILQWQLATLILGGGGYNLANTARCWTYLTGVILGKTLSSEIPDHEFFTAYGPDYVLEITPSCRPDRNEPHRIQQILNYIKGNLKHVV

SMILES | pIC50 [1] | pIC50 [2]
CP(=O)(O)OCCCCCC(=O)Nc1ccccc1 | 2.21 | 3.41
CP(=O)(O)NCCCCCC(=O)Nc1ccccc1 | 2.70 | 3.55
